Columns and labels:
Test in all cases: Competitive binding assay, [3H]flunitrazepam
[1] = biological target: GABAA/α3 (α3β3γ2 GABAA receptors) (Homo sapiens, UniProt P18507+P34903); conditions: read-out: Binding Affinity at GABAA/α3; αxβ3γ2, [3H]flunitrazepam competition
[2] = biological target: GABAA/α1 (α1β3γ2 GABAA receptors) (Homo sapiens, UniProt P14867+P18507); conditions: read-out: Binding Affinity at GABAA/α1; αxβ3γ2, [3H]flunitrazepam competition
[3] = biological target: GABAA/α5 (α5β3γ2 GABAA receptors) (Homo sapiens, UniProt P18507+P31644); conditions: read-out: Binding Affinity at GABAA/α5; αxβ3γ2, [3H]flunitrazepam competition
[4] = biological target: GABAA/α6 (α6β3γ2 GABAA receptors) (Homo sapiens, UniProt P18507+Q16445); conditions: read-out: Binding Affinity at GABAA/α6; αxβ3γ2, [3H]flunitrazepam competition
[5] = biological target: GABAA/α2 (α2β3γ2 GABAA receptors) (Homo sapiens, UniProt P18507+P47869); conditions: read-out: Binding Affinity at GABAA/α2; αxβ3γ2, [3H]flunitrazepam competition
[6] = biological target: GABAA/α4 (α4β3γ2 GABAA receptors) (Homo sapiens, UniProt P18507+P48169); conditions: read-out: Binding Affinity at GABAA/α4; αxβ3γ2, [3H]flunitrazepam competition

Compound `C#Cc1ccc2c(c1)C(c1ccccc1)=NCC1=N/C(=C\N3CCN(C)CC3)C(=O)N12` has a Ki [1] of 434 nM, a Ki [2] of 193 nM and a Ki [3] of 22 nM. It also gave a Ki [4] of over 5000 nM, a Ki [5] of 35 nM and a Ki [6] of over 5000 nM.
